Series [1] in a line: AGE2-producing capability by reaction of oligopeptide with glyceraldehyde (ELISA with anti-AGE2 polyclonal antibody). The class given is biochemical. The note with it: 10 mM amino acid or peptide + 100 mM glyceraldehyde, 0.1M phosphate buffer pH 7.4, 37° C., 1 week. On the procedure: To 0.1M phosphate buffer (pH 7.4) containing 10 mM of any of Lys, Lys-Lys, Lys-Lys-Lys, and Lys-Lys-Lys-Lys (SEQ ID NO: 1) was added 100 mM glyceraldehyde and the mixture was reacted at 37° C. for 1 week. One week later, the AGE2 concentration of the reaction mixture was measured.
In general terms: ELISA stands for enzyme-linked immunosorbent assay.

The test system of series [2] is AGE2 production by glyceraldehyde and bovine serum albumin. As to the kind of experiment: Inhibition of AGE2 production by glyceraldehyde and serum albumin (ELISA with anti-AGE2 polyclonal antibody). The conditions noted are these: read-out: IC50 of inhibition of AGE2 production; 10 mM glyceraldehyde, 10 mg/ml bovine serum albumin, phosphate buffer pH 7.4, 37° C., 3 days.

In the case of `NCCCC[C@H](NC(=O)[C@H](CCCCN)NC(=O)[C@@H](N)CCCCN)C(=O)O` [Lys-Lys-Lys], in series [1], the AGE2 concentration is on record as 6.8 U/ml. The IC50 in series [2] came out at 530 µM.

In general, IC50 refers to the concentration needed to halve the response being measured.

Values taken from patent US20070049535A1, “PREVENTIVE/REMEDY FOR DIABETIC COMPLICATIONS USING OLIGOPEPTIDE” (priority 2004, published 2007).
